# Source: patent publication US7456201B2, “Pharmaceutically active compounds and methods of use” (Laboratoires Serono SA, priority 2000, dated 2008)
# System: untransfected CHO parental cells
# Experiment: CHO parental cells assay (intracellular cAMP, RIA)
# Type: cell-based, Chinese Hamster
# Settings: 10^−7 (M) dose, previous experiment
# Protocol: Briefly CHO parental cells were plated in 96 well packard view plates 5×10^4 cells/well in serum containing media. After 20 hours the cells were confluent. The wells were washed with serum free assay medium (containing 0.1 mM MIX) and pre-incubated for 15 minutes in this medium. Compound 1 and forskolin (positive control) were added and the cells were incubated for an additional one hour. The cells were lysed and intracellular cAMP was measured using the Amersham direct one step cAMP-RIA kit according to the manufacturers directions.
substance,measurement,value
"rhFSH: rhFSH, follicle stimulating hormone (FSH)",intracellular cAMP response over background,no response over background
